Results taken from publication PMC10004634 (PLOS ONE, 2023).

Target: T1, JAK3(JH1domain-catalytic) (Homo sapiens, UniProt P52333)
T1 construct: JH1domain-catalytic
T1 sequence (P52333 1-1124): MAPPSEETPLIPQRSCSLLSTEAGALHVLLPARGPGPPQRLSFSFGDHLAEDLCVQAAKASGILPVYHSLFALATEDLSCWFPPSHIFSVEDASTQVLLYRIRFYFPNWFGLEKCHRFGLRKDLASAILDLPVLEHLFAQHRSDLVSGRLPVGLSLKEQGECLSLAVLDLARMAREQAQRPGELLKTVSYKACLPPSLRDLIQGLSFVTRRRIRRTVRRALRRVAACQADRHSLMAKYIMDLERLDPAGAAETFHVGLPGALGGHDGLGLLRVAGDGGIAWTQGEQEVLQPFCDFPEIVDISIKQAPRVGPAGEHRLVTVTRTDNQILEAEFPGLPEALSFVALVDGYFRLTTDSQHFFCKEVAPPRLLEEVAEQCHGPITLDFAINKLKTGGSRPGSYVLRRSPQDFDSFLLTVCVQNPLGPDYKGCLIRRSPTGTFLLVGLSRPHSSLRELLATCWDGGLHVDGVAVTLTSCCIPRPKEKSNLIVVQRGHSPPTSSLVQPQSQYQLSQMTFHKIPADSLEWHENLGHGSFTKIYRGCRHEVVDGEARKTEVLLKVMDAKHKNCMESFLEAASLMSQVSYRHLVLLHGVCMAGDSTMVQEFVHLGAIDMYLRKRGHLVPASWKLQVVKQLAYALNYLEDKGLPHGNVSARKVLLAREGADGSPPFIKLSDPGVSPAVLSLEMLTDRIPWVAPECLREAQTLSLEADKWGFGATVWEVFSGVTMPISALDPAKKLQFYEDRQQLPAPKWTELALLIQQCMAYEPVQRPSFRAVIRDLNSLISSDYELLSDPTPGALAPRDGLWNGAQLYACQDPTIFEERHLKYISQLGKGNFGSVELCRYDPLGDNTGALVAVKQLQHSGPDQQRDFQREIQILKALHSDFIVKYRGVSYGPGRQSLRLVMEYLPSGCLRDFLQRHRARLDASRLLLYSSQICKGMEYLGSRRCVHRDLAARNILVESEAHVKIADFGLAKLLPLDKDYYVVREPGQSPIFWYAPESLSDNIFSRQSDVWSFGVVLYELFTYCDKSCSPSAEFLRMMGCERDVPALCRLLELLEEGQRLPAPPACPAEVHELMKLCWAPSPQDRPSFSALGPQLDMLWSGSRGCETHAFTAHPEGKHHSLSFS
Assay: biochemical
Parameters: KINOMEscan scanMAX competition binding, DNA-tagged kinases, qPCR read-out, percent control at 300 nM

SMILES | Percent control / Ibrutinib (percent of kinase still bound to immobilized ligand, 0.3 µM, binder) [%] | remaining binding at 0.3 µM (read-out: Percent control / Zanubrutinib) [%]
C=CC(=O)N1CCC[C@@H](n2nc(-c3ccc(Oc4ccccc4)cc3)c3c(N)ncnc32)C1 [Ibrutinib] | 3.7 | 
C=CC(=O)N1CCC([C@@H]2CCNc3c(C(N)=O)c(-c4ccc(Oc5ccccc5)cc4)nn32)CC1 [Zanubrutinib] |  | 86
